From paper PMC5472181, “Drug Binding Poses Relate Structure with Efficacy in the μ Opioid Receptor” (2017) come the findings set out here.

Sequences of proteins named here, by UniProt entry; tags and fusion partners are left off. A change or cut given only in a name is not applied to a line headed by its entry.
UniProt P33535: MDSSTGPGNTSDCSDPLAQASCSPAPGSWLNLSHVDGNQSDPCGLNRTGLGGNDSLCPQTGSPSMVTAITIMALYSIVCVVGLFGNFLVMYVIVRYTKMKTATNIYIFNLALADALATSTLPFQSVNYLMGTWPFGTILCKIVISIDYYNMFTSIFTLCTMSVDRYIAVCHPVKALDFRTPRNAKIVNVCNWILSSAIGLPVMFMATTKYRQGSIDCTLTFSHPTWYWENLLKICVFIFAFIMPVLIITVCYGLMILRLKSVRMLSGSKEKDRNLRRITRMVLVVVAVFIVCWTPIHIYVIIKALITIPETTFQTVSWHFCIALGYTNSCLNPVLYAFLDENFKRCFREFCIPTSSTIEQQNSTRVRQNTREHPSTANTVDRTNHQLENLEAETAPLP

One assay addresses HA-tagged rat MOPr (Rattus norvegicus, UniProt P33535). In words: BRET Gi activation in HEK […] cells, antagonist mode. The following applies: 1 μM diprenorphine 10 min before 10 μM DAMGO, 0.01% DMSO. In general terms: BRET reads energy transfer from a luciferase to a nearby fluorophore.
Assay [1] addresses rat MOPr-yellow fluorescent protein (YFP) (Rattus norvegicus, UniProt P33535). In words: BRET arrestin-3 recruitment in HEK […] cells, antagonist mode. To be noted: 1 μM diprenorphine 10 min before 10 μM DAMGO, 0.01% DMSO.

On to diprenorphine, for which the “BRET Gi activation in HEK 293 cells, antagonist mode” value at HA-tagged rat MOPr was “completely inhibited the DAMGO response for both Gi activation and arrestin-3 recruitment”. In assay [1], the “BRET arrestin-3 recruitment in HEK 293 cells, antagonist mode” value is “completely inhibited the DAMGO response for both Gi activation and arrestin-3 recruitment”.
